1 compound from the supplement of paper PMC6522484 can be followed below.

Assay [1] relates to DLD1. The assay is described as follows: cell viability (CellTiter-Glo) relative to plate median (fraction of plate median); higher = more viable cells. The following applies: 5 µM; treatment time 24 h; reporter: 7TFP. A digest of the protocol:
(§1)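 Two independent replicates were averaged for each reported value. Library compounds were applied at a final 5 µM for 24 h to colorectal cancer cell lines stably expressing lentiviral TCF/Wnt firefly luciferase reporters. Firefly luciferase or CellTiterGlo luminescence from each well was normalised to the plate median.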
(Cellular ATP, detected with luciferase, serves as a proxy for viable cell number.)

Assay [2] deals with HCT116. The description is as above. The following applies: 5 µM; treatment time 24 h; reporter: TCF4/Wnt. The essentials:
as §1

Assay [3] relates to SW480. The assay is described as above. The following applies: 5 µM; treatment time 24 h; reporter: 7TFP. A digest of the protocol:
as §1

Assay [4] deals with DLD1. Briefly: TCF/Wnt firefly luciferase reporter signal relative to plate median (fraction of plate median); higher = higher Wnt reporter signal. The following applies: 5 µM; treatment time 24 h; reporter: 7TFP. A digest of the protocol:
as §1

The test system of assay [5] is SW480. Described as above. The following applies: 5 µM; treatment time 24 h; reporter: 7TFP. A digest of the protocol:
as §1

The structures appear in SMILES notation. ± gives the standard deviation of the averaged measurements. For some assays here: Shown are results outside the selection of highest values, which stands elsewhere. For some assays here: What follows is the remainder of the data, with few or none of the lowest values.

For `COc1c2ccccc2nc2occc12`, the cell viability in assay [1] came to 0.938 ± 0.088; in assay [2], 0.9605 ± 0.0035; in assay [3] it was 1 ± 0.12. Besides, the “TCF/Wnt firefly luciferase reporter signal” value in assay [4] worked out at 1.04 ± 0.014; in assay [5], 1.004 ± 0.0078.
